This note sets out measurements from ChEMBL document CHEMBL6134860, “Discovery and optimization of a novel carboxamide scaffold with selective antimalarial activity” (Eur J Med Chem, 2025).

The experiment concerns Plasmodium falciparum. As to the kind of experiment: Antiplasmodial activity against Plasmodium falciparum strain NF54 assessed as 99% parasite clearance time in presence of 2% haematocrit and 0.5 % parasitemia at 10 times EC50 followed by media with compound exchanged daily measured after 2 weeks by standard hypoxanthine assay. Format: functional.

As for `CCN(CC)CCCC(C)Nc1ccnc2cc(Cl)ccc12` (stereo unspecified) [CHLOROQUINE], the Time amounted to 66.1 h.
